# In patent publication US20080096811A1, “[…] VPAC2 RECEPTOR PEPTIDE AGONISTS” (Eli Lilly and Company, published 2008):
# Sequences of proteins named here, by UniProt entry; tags and fusion partners are left off. Residues count along the entry.
# UniProt P35000, 23-437: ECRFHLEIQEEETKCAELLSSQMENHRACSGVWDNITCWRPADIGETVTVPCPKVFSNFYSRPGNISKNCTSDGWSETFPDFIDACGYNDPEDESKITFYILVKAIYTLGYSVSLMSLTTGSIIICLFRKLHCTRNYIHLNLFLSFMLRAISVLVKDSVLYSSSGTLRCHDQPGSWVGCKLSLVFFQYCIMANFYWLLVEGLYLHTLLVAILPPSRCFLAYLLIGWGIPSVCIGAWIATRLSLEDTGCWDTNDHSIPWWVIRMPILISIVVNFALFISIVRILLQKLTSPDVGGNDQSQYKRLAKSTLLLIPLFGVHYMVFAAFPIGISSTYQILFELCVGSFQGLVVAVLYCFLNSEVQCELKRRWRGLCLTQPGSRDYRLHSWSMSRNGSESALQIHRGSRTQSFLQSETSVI
# UniProt P41586, 21-468: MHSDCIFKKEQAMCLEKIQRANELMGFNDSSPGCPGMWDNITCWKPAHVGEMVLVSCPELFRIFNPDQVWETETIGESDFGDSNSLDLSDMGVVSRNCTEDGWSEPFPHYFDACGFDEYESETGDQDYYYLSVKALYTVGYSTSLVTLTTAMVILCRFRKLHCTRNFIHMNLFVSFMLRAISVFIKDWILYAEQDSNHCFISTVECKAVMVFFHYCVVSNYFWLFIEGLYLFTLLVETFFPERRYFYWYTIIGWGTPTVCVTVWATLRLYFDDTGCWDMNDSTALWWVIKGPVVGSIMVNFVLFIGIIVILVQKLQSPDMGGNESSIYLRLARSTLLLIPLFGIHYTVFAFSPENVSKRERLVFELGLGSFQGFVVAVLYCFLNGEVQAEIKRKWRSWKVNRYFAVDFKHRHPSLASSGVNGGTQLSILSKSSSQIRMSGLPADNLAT
# UniProt P32241, 31-457: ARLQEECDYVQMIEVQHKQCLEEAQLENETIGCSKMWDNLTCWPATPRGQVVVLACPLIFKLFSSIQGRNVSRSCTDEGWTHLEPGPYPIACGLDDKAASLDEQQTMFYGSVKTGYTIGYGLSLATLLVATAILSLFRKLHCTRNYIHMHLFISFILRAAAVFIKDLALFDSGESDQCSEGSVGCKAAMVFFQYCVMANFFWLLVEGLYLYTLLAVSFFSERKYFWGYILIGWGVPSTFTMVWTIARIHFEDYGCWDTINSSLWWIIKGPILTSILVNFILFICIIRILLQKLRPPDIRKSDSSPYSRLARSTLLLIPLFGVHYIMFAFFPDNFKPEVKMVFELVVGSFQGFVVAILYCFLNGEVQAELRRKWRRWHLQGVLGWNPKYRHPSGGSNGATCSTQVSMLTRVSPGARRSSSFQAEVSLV
# Legend:
# [1] = target: T1, human VPAC2 (Homo sapiens, UniProt P41587); test: Alpha screen cAMP in vitro potency, human VPAC2; assay type: cell-based
# T1 construct: expressed in transfected cells
# T1 sequence (P41587 24-438): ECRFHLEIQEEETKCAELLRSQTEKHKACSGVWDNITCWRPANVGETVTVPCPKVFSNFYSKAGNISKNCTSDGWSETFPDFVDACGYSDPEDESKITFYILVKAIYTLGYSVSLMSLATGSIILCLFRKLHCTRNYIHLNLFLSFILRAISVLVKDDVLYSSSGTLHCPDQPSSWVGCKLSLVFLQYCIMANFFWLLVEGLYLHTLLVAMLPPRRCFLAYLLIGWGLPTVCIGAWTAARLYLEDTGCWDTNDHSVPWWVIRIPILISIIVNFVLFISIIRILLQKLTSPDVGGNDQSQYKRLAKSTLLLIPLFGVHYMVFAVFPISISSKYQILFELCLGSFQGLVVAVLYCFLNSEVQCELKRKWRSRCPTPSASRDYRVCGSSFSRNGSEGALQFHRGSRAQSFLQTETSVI
# Procedure: Alpha screen: Cells are washed in the culture flask once with PBS. Then, the cells are rinsed with enzyme free dissociation buffer. The dissociated cells are removed. The cells are then spun down and washed in stimulation buffer. For each data point, 50,000 cells suspended in stimulation buffer are used. To this buffer, Alpha screen acceptor beads are added along with the stimuli. This mixture is incubated for 60 minutes. Lysis buffer and Alpha screen donor beads are added and are incubated for 60 to 120 minutes. The Alpha screen signal (indicative of intracellular cAMP levels) is read in a suitable instrument (e.g. AlphaQuest from Perlin-Elmer). Steps including Alpha screen donor and acceptor beads are performed in reduced light.
# [2] = 10 μM peptide in rat serum, 37° C. vs 4° C. with aprotinin, EC50,4C/EC50,37C
# [3] = target: rat VPAC2 receptor (Rattus norvegicus, UniProt P35000); test: cell-based
# [4] = target: human PAC1 (Homo sapiens, UniProt P41586); test: biochemical
# Procedure: (§1) For this assay, the solutions and equipment include:
# (§2) Presoak solution: 0.5% Polyethyleneamine in Aqua dest.
# (§3) Buffer for flushing filter plates: 25 mM […] pH 7.4
# (§4) Blocking buffer: 25 mM HEPES pH 7.4; 0.2% protease free BSA
# (§5) Assay buffer: 25 mM HEPES pH 7.4; 0.5% protease free BSA
# (§6) Dilution and assay plate: PS-Microplate, U form
# (§7) Filtration Plate Multiscreen FB Opaque Plate; […] Type B Glasfiber filter
# (§8) In order to prepare the filter plates, aspirate the presoak solution by vacuum filtration. Flush the plates twice with 200 μL flush buffer. Add 200 μL blocking buffer to the filter plate. The filter plate is then incubated […] for 1 hour at room temperature.
# (§9) Fill the assay plate with 25 μL assay buffer, 25 μL membranes (2.5 μg) suspended in assay buffer, 25 μL compound (agonist) in assay buffer, and 25 μL tracer (about 40000 cpm) in assay buffer. Incubate the filled plate for 1 hour with shaking.
# (§10) Conduct the transfer from assay plate to filter plate. Aspirate the blocking buffer by vacuum filtration and wash two times with flush buffer. Transfer 90 μL from the assay plate to the filter plate. Aspirate the 90 μL transferred from assay plate and wash three times with 200 μL flush buffer. Remove the plastic support. Dry for 1 hour at 60° C. Add 30 μL Microscint. Perform the count.
# [5] = target: T1, human VPAC2; test: Filter binding assay, human VPAC2 membranes, 125I-labeled VIP tracer
# Procedure: as §1, §2, §3, §4, §5, §6, §7, §8, §9, §10
# [6] = target: human VPAC1 (Homo sapiens, UniProt P32241); test: Filter binding assay, human VPAC1 membranes, 125I-labeled VIP tracer; set-up: expressed in transfected cells
# Procedure: as §1, §2, §3, §4, §5, §6, §7, §8, §9, §10
structure (smiles),measurement,setting,value
CCCCCC(=O)N[C@@H](Cc1c[nH]cn1)C(=O)N[C@@H](CO)C(=O)N[C@@H](CC(=O)O)C(=O)N[C@@H](C)C(=O)N[C@H](C(=O)N[C@@H](Cc1ccccc1)C(=O)N[C@H](C(=O)N[C@@H](CC(=O)O)C(=O)N[C@@H](CC(N)=O)C(=O)N[C@@H](Cc1ccc(O)cc1)C(=O)N[C@H](C(=O)N[C@@H](CCCNC(=N)N)C(=O)N[C@@H](CC(C)C)C(=O)N[C@@H](CCCNC(=N)N)C(=O)NC(C)(C)C(=O)N[C@@H](CCC(N)=O)C(=O)N[C@H](C(=O)N[C@@H](C)C(=O)N[C@@H](C)C(=O)NC(C)(C)C(=O)N[C@@H](CCCCN)C(=O)N[C@@H](Cc1ccc(O)cc1)C(=O)N[C@@H](CC(C)C)C(=O)N[C@@H](CCC(N)=O)C(=O)N[C@@H](CO)C(=O)N[C@H](C(=O)N[C@@H](CCCCN)C(=O)N[C@@H](CC(N)=O)C(=O)N[C@@H](CO)C(=O)N[C@@H](CCCNC(=N)N)C(=O)N[C@H](C(=O)N[C@@H](CO)C(=O)N1CCC[C@H]1C(=O)N1CCC[C@H]1C(=O)N1CCC[C@H]1C(N)=O)[C@@H](C)O)[C@@H](C)CC)C(C)C)[C@@H](C)O)[C@@H](C)O)C(C)C [Agonist P309],EC50,[1],0.16 nM
same,Rat Serum Stability (Estimated purity in % after 18 hours),[2],29.72%
same,EC50,[3],0.05 nM
same,IC50,[4],> 25000 nM
same,IC50,[5],0.42 nM
same,IC50,[6],> 3000 nM
